Measured values taken from PubChem BioAssay AID652039 (The Scripps Research Institute Molecular Screening Center, 2013).
The entries are a selection whose mix differs from that of the whole data set. Active and inactive are the calls of the source.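 The calls were made as follows: active = activation above the mean of all tested compounds plus 3 SD, computed per campaign excluding outliers beyond control limits (cut at about 13% in these data); inactive = the rest.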

By UniProt entry, the sequences of proteins in these tests, tags left out. Where a name states a change or a piece, a line headed by the entry shows the natural chain unless it says otherwise.
UniProt P49862: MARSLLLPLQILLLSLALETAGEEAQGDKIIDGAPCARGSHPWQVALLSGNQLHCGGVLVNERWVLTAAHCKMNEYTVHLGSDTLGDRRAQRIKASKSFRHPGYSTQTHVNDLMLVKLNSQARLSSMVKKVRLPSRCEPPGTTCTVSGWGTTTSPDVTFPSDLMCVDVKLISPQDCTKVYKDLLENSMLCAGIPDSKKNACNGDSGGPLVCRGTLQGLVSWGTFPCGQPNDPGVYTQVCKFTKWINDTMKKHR

Molecular target: Kallikrein-7 (Homo sapiens) (UniProt P49862)
Experiment: proKLK7 zymogen activators, primary screen, biochemical, fluorescence intensity (AID 652039)
Conditions: purified proKLK7, EDANS-DABCYL substrate fluorescence; at 7 µM; hits give high values; 100% is mature enzyme control, 0% vehicle

SMILES | activation
O=P1(Nc2ccccn2)COc2ccccc2OC1 | inactive: -0.34%
CCOP(=O)(NC(=NC(C)c1ccccc1)NC(C)c1ccccc1)OCC (stereo unspecified) | inactive: -0.19%
CN(CCCl)Cc1cc(Cl)c(NC2=NCCN2)c(Cl)c1 | inactive: 0.16%
CCOP(=O)(Nc1ccc(C)cn1)OCC | inactive: -0.14%
Clc1n[nH]nc1-c1nn[nH][15n]1 | inactive: -0.89%
O=P1(N(CCCl)CCCl)NCCC(C(F)(F)F)O1 (stereo unspecified) | inactive: -0.56%
CC(C)(C)C(=O)NC(Sc1ncccn1)C(Cl)(Cl)Cl (stereo unspecified) | inactive: -0.73%
O=C(OC1CN2CCC1CC2)c1cccc([N+](=O)[O-])c1 (stereo unspecified) | inactive: 0.28%
CCOC(=O)c1ccc(NC(=O)C(C)(CCl)SC)cc1 (stereo unspecified) | inactive: 0.7%
CCC(C)N(CC(C)C)C(=S)SC(NC(C)=O)C(Cl)(Cl)Cl (stereo unspecified) | inactive: -0.51%
COP1(=S)c2c(C)nn(CCC#N)c2N=C(c2ccc(F)cc2)N1C (stereo unspecified) | inactive: 0.3%
COC(=O)C1(C)COP(=O)(N2CCCC2)OC1 (stereo unspecified) | inactive: -0.51%
O=C(O)C(=O)c1ccc(N(CCCl)CCCl)cc1 | inactive: 0.03%
O=C(COc1ccccc1)OC1CN2CCC1CC2 (stereo unspecified) | inactive: -0.51%
O=C(Nc1ccncc1[N+](=O)[O-])c1ccc([N+](=O)[O-])cc1[N+](=O)[O-] | inactive: -0.29%
CCOC(=O)Nc1cccc([As](=O)(O)O)c1 | inactive: 0.02%
Cc1cc(SC(NC=O)C(Cl)(Cl)Cl)ncn1 (stereo unspecified) | inactive: 0.45%
O=P(Nc1ccccn1)(c1cccc2ccccc12)c1cccc2ccccc12 | inactive: 0.52%
O=[N+]([O-])c1ccc(Nc2ccc(Oc3ccc([N+](=O)[O-])cc3[N+](=O)[O-])cc2)c([N+](=O)[O-])c1 | inactive: -0.2%
O=C(O)C(O)c1ccc(N(CCCl)CCCl)cc1 (stereo unspecified) | inactive: 0.47%
CCOC(=O)Nc1ccc([As](=O)(O)O)c(O)c1 | inactive: 0.4%
CC1CCNP(=O)(N(CCCl)CCCl)O1 (stereo unspecified) | inactive: 0.15%
COP(=O)(OC)N1CC1c1ccccc1 (stereo unspecified) | inactive: 0.16%

SMILES | activation
CCCCOc1ccc(C(=O)NCC2(N3CCCCC3)CCCCC2)cc1OC | inactive: -0.25%
Cc1cc(SC(NC(=O)c2ccccc2)C(Cl)(Cl)Cl)nc(C(C)C)n1 (stereo unspecified) | inactive: 0.47%
CC(C)c1ccc(OP(=O)(Nc2ccccn2)Oc2ccccc2F)cc1 (stereo unspecified) | inactive: -0.09%
COC(=O)C1(C)COP(=O)(N2CCCCCC2)OC1 (stereo unspecified) | inactive: -0.44%
O=C(OC1CN2CCC1CC2)c1cccc2[nH]cnc12 (stereo unspecified) | inactive: -0.63%
CCN(CC)C(=S)SC(NC=O)C(Cl)(Cl)Cl (stereo unspecified) | inactive: 0.24%
CC(C)NC(=O)NP(=O)(Oc1ccccc1)Oc1ccccc1 | inactive: 1.26%
C[As](=O)(O)c1cccc(C(=O)O)c1 | inactive: 0.6%
O=[As](O)(c1ccc(O)cc1)c1ccccc1O | inactive: 0.13%
COc1cc(C(=O)NCC2(N3CCOCC3)CCCCC2)ccc1OCC(C)C | inactive: 0.22%
O=[N+]([O-])c1ccc(-c2cc([N+](=O)[O-])c(O)c([N+](=O)[O-])c2)cc1 | inactive: 0.03%
Cc1ccc(OP(=O)(Nc2ccc([N+](=O)[O-])cn2)Oc2ccc(C)cc2)cc1 | inactive: -0.04%
[N-]=[N+]=NC1CCCCC1NC(=O)c1cc([N+](=O)[O-])cc([N+](=O)[O-])c1 (stereo unspecified) | inactive: 0.02%
Cc1ccc2nc3c(c(C)c2c1)CC(C(Cl)Cl)S3 (stereo unspecified) | inactive: -0.1%
O=[N+]([O-])c1cc(Oc2ccc([N+](=O)[O-])cc2C(F)(F)F)cc([N+](=O)[O-])c1 | inactive: -0.04%
COc1ccc(N/C(=N/P(=O)(N2CCOCC2)N2CCOCC2)N2CCOCC2)cc1 | inactive: 0.25%
Cc1c2c(nc3ccccc13)SC(C(Cl)Cl)C2 (stereo unspecified) | inactive: 0.01%
O=C(OC1CN2CCC1CC2)C12CC3CC(CC(C3)C1)C2 (stereo unspecified) | inactive: 0.24%
Cc1cc(=O)[nH]c(N[N+](=O)[O-])n1 | inactive: -0.59%
O=P1(N(CCCl)CCCl)Nc2ccccc2N1 | inactive: -0.23%
O=P1(N(CCCl)CCCl)OCCCN1CCCl (stereo unspecified) | inactive: -0.14%
COc1ccc2nc(NP(=O)(c3ccccc3)c3ccccc3)sc2c1 | inactive: -0.61%
COc1cc(I)ccc1[As](=O)(O)O | inactive: -0.21%
